In BindingDB's records for doi:10.1016/j.bmcl.2005.11.059 (University of Kansas, 2006) one finds IC50 data, which are given here for one molecule.

Amino acid sequences for entries named in this document (tags omitted).
UniProt O00206, whole entry: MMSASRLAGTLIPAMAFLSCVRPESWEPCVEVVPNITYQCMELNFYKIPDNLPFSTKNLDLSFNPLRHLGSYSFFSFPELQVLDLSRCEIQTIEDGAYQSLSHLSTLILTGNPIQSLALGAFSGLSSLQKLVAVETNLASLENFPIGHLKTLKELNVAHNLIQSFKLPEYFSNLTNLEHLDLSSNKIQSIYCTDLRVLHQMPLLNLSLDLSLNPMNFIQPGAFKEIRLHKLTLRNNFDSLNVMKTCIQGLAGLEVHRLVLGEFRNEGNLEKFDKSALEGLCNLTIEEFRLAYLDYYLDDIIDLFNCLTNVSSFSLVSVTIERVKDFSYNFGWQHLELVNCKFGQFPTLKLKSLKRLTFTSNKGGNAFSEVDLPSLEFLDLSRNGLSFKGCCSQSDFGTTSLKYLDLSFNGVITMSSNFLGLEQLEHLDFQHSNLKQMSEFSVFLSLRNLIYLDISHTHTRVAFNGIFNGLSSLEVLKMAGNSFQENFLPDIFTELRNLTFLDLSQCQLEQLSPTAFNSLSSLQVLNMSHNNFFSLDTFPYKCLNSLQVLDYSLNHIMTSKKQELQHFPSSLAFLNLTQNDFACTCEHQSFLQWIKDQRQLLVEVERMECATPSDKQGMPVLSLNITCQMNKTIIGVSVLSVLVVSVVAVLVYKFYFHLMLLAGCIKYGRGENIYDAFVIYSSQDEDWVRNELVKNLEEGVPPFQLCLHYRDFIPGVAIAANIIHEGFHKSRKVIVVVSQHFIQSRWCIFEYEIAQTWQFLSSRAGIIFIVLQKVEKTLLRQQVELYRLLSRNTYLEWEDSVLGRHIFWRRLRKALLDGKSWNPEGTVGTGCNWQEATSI

By IC50 is commonly meant the concentration that inhibits the measured activity by half. Lower therefore signals higher potency.

The test concerns the target Toll-like receptor 4 (Homo sapiens, UniProt O00206). Put plainly: Inhibition of induction of NF-kappaB by LPS in HEK293 cells co-transfected with TLR4, CD14 and MD2. The method, boiled down:
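HEK293 cells cotransfected with TLR4, CD14 and MD2 are cultured in medium containing fetal bovine serum and stimulated with LPS. NF-κB induction is quantified, and IC50 is the concentration inhibiting NF-κB induction by 50%.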

Molecule `CCC(C)CCCCC(=O)N[C@@H](CCN)C(=O)N[C@H](C(=O)N[C@@H](CCN)C(=O)N[C@H]1CCNC(=O)[C@H]([C@@H](C)O)NC(=O)[C@H](CCN)NC(=O)[C@H](CCN)NC(=O)[C@H](CC(C)C)NC(=O)[C@@H](Cc2ccccc2)NC(=O)[C@@H](CCN)NC1=O)[C@@H](C)O` (stereo partly specified) [POLUMYXIN B] displayed an IC50 of 1230 nM. That is a single-digit micromolar value.
